Assay results from patent US20050049204A1, “Compounds for the treatment of flaviviridae infections” (priority 2003, published 2005).

Experiments:
[1] = tested on: HCV replicon RNA in Huh7 cells; experiment: Reversal studies with natural nucleosides: HCV RNA; format: cell-based, hepatitis C virus (HCV); conditions: no nucleoside
Method: (§1) Incubation times differed according to the type of experiment.
(§2) Cells were incubated with the test compound and, simultaneously, the natural ribo- or 2′-deoxy nucleosides (adenosine, guanosine (G), cytidine (C), uridine (U), 2′-deoxycytidine (dC), 2′-deoxyuridine, thymidine, 2′-deoxyguanosine (dG), and 2′-deoxyadenosine) (Table 2).

[2] = tested on: HCV-replicon RNA-containing Huh7 cells (HCV RNA); conditions: 96 hr of incubation; as previously published (Stuyver et al. 2003); cited from earlier work
[3] = tested on: HCV replicon RNA in Huh7 cells; experiment: HCV RNA levels in replicon cells over a 7-day period; format: cell-based, hepatitis C virus (HCV); conditions: IFN-α-2a at 100 IU/ml; control 1.79±0.4
HCV = conditions: IFN as sole treatment (Davis 2000); cited from earlier work
[4] = tested on: HCV replicon-containing Huh7 cell line; experiment: Dynamics of replicon cell growth (cell count) over a 7-day period
[5] = tested on: HCV-replicon RNA-containing Huh7 cells (HCV RNA); experiment: HCV replicon assay: HCV RNA quantified by Q-RT-PCR after 96 h of compound exposure; format: cell-based, hepatitis C virus (HCV); conditions: IFN tested at 100 IU/ml; for Corrected HCV RNA log10 reduction: corrected for rRNA
Method: as §1

[6] = tested on: rRNA in HCV replicon Huh7 cells; experiment: Reversal studies with natural nucleosides: rRNA; format: cell-based; conditions: 3125 IU/ml, no nucleoside
Method: as §1, §2

**Q.** With C[C@@]1(O)[C@H](O)[C@@H](CO)O[C@H]1n1ccc(N)nc1=O [2′C—CH3—C, 2′-C-methyl-cytidine] as the compound, how does the “log10 reduction HCV” value ([1]; 25 μM) read?
**A.** Its value is 1.62 ± 0.05 log10.

**Q.** With “Interferon: recombinant interferon alfa-2a (Roferon-A, Hoffmann-La Roche), control in the replicon experiments” as the compound, how does the “Corrected HCV RNA EC90” value [2] read?
**A.** Its value is 4.5 IU/ml.

**Q.** And the “HCV RNA levels over the 7-day period” value [3]?
**A.** The value was −0.53±0.4.

**Q.** And the “sustained response, share of patients chronically infected with HCV” value (HCV)?
**A.** The value was 8%-9%.

**Q.** And the “cell growth at day 4” value ([4]; day 4, IFN-α-2a at 100 IU/ml)?
**A.** Its value is 0.67±0.06 log10.

**Q.** And the “cell growth, log10 increase from day 0” value ([4]; day 7, IFN-α-2a at 100 IU/ml)?
**A.** Its value is 1.07±0.06 log10.

**Q.** And the “Log10 RNA reduction HCV” value [5]?
**A.** The value was 1.57 ± 0.26 log10.

**Q.** What about the “Corrected HCV RNA log10 reduction” value [5] of the same compound?
**A.** The value was 1.36 ± 0.37 log10.

**Q.** What about the “Corrected HCV RNA log10 reduction” value ([5]; listed as IFN-α-2a) of the same compound?
**A.** The value was 1.36±0.37 log10.

**Q.** And the “Log10 RNA reduction HCV” value ([5]; listed as IFN-α-2a)?
**A.** The value was 1.57±0.26 log10.

**Q.** What about the “log10 reduction rRNA” value [6] of the same compound?
**A.** The value was 0.26 ± 0.18 log10.

**Q.** What about the “log10 reduction HCV” value ([1]; 3125 IU/ml) of the same compound?
**A.** Its value is 1.62 ± 0.05 log10.
